# According to PMC7723054:
# The other results are listed elsewhere or left out.
# B1: hsa-mir-1471 (structured_RNA)
# RNA: GGGAAUAGUUACUAAGGCCAAAUGAAGCGGUGUACGAAGUUUCAGCGUGUAGAGGCGGAGCACAGGCUGAAGCUUCGUGCAC
# B2: hsa-mir-490 (structured_RNA)
# RNA: GGGACACAUCGGUCAAUCACGAGGCAGAGGUGUACGAAGUUUCAGCGUGGGUCAAGUUUAGAGAUGCACCAACGCUGAAGCUUCGUGCAC
# B3: hsa-mir-3156-1 (structured_RNA)
# RNA: GGGACAGGCGAUACCCCUGUAAACCGAUGGUGUACGAAGUUUCAGCGGAGACACUUUUACUAUAUAUAGUGGCUCCGCUGAAGCUUCGUGCAC
# B4: hsa-mir-4259 (structured_RNA)
# RNA: GGGAAAAGCGGAGGUCACACAAGGUUUUGGUGUACGAAGUUUCAGCGGUGGGGGCUCUGAGUGGGGAAAGUGGGGGCCUAGGGGAGGUCACAGUGCUGAAGCUUCGUGCAC
# B5: hsa-mir-4462 (structured_RNA)
# RNA: GGGAACUUACUGAGAGGGCAGCCGACUCGGUGUACGAAGUUUCAGCGUCAGGAGUGGCUUUCCUGACGCUGAAGCUUCGUGCAC
# B6: hsa-mir-1228 (structured_RNA)
# RNA: GGGAGGACAUACGGCUACAUGGAGCGUUGGUGUACGAAGUUUCAGCUGUGGUGGGUGGUGGCCUGCGGUGAGCAGGGCCCUCAGCUGAAGCUUCGUGCAC
# B7: hsa-mir-5591 (structured_RNA)
# RNA: GGGACAUAUGAAAAGGGGAGUCUCACGGGGUGUACGAAGUUUCAGCGUAUACUGAGCUUAUGUAUGCAUCUGCAUACGCUGAAGCUUCGUGCAC
# B8: hsa-mir-8059 (structured_RNA)
# RNA: GGGAACCCUGAGCGUUGGGAAGUUAAUCGGUGUACGAAGUUUCAGCAGGCUUGGCACUUGAGGGAAAGCCUGCUGAAGCUUCGUGCAC
# B9: hsa-mir-1268a (structured_RNA)
# RNA: GGGACACCUGAAGGGGAGUAGCAUACUAGGUGUACGAAGUUUCAGCGGGGCCUGUGGUCCCGCUGAAGCUUCGUGCAC
# B10: hsa-mir-6516 (structured_RNA)
# RNA: GGGAAACCGCACUGAGCGAAAUGUGACCGGUGUACGAAGUUUCAGCUGAGCAUUCUAGCAGCAGUUUGAUGAUCAGCUGAAGCUUCGUGCAC
# B11: hsa-mir-6831 (structured_RNA)
# RNA: GGGAAGGCAGACUGUAGCGUCUUACGGGGGUGUACGAAGUUUCAGCGGUCUGAGCCCAUGUGUGGACCUAGGUCUGCUGUUAAACUGACUGCUGAAGCUUCGUGCAC
# B12: hsa-mir-644a (structured_RNA)
# RNA: GGGCCAUAUGUACCGGGCAUCACUCCAGGGUGUACGAAGUUUCAGCCUCUGUAGUUUUCUUAUAGUGGCUGAAGCUUCGUGCAC
# B13: hsa-mir-4633 (structured_RNA)
# RNA: GGGAACUGAGAUAGCGCAAGACUCGAUAGGUGUACGAAGUUUCAGCUCCUCCACAAAUGCGUGUGGAGGAGCUGAAGCUUCGUGCAC
# B14: hsa-mir-6768 (structured_RNA)
# RNA: GGGACGCACUAACAUUGAGUUACCGGAAGGUGUACGAAGUUUCAGCCUGGGUUCGGCUGCUACCCCAAAGCUGAAGCUUCGUGCAC
# B15: hsa-mir-1302-6 (structured_RNA)
# RNA: GGGAAAAGUAAGGCAGUUAAGCACGCACGGUGUACGAAGUUUCAGCCACAAUAUUUAGGACAACAAUAUUGCUGAAGCUUCGUGCAC
# B16: hsa-mir-1272 (structured_RNA)
# RNA: GGGAGUAUCAAACUAAUCAACGACCCUCGGUGUACGAAGUUUCAGCAAACGUGCUCAGUGUCUUUAUAACAGGAAAGCCGUAAACGCUGAAGCUUCGUGCAC
# B17: hsa-mir-3127 (structured_RNA)
# RNA: GGGACUACGCGCGCCAUCGUUUAGCUUUGGUGUACGAAGUUUCAGCGGGAAGGAGAAGGGACGCUUCCCGCUGAAGCUUCGUGCAC
# B18: hsa-mir-1205 (structured_RNA)
# RNA: GGGAAGGGUACCCAUAACACGACGAAAGGGUGUACGAAGUUUCAGCUGAGGUACUUCCUUCGCUGAAGCUUCGUGCAC
# B19: hsa-mir-219a-1 (structured_RNA)
# RNA: GGGACGUCGACGGUCACAGUAAAAUCAGGGUGUACGAAGUUUCAGCUUCUCGAGUCUAUGGCUCCGGCCGAGAGGCUGAAGCUUCGUGCAC
# B20: hsa-mir-8055 (structured_RNA)
# RNA: GGGAAACAGCCGAGUGUGCUGAAUCCAUGGUGUACGAAGUUUCAGCAAAUAAAAGAUGGAGUCGUUUGACGUCUUUUAACACCCUUUGCUGAAGCUUCGUGCAC
# B21: hsa-mir-4640 (structured_RNA)
# RNA: GGGAAUAAGUCGUCGCGUGAUCCAGCUAGGUGUACGAAGUUUCAGCGGUGGGUGGGAAGUAAGAUCUGACCUGGACUCCAUCCCACCCACCGCUGAAGCUUCGUGCAC
# B22: hsa-mir-6826 (structured_RNA)
# RNA: GGGAUGCAGGUAUGAUACACGGAAGAUCGGUGUACGAAGUUUCAGCACCUCCUGGCUUUUCCUCUGCAGCAUGGCUCGGACCUAGUGCAAUGUUUAAGCUGCUGAAGCUUCGUGCAC
# Experiments:
# Experiment in all cases: FOREST: bead pull-down of RNA structure library v1, barcode microarray; U1A/LIN28A: 20 mM HEPES pH 7.5, 80 mM KCl, 20 mM NaCl, 10% glycerol, 2 mM DTT, 0.1 ug/uL BSA, 4 C; BG4/CIRBP/DHX36: 10 mM Tris-HCl pH 7.5, 100 mM KCl (or LiCl),; high values mean tight binding
# U1A = U1A (Homo sapiens, UniProt P09012)
# LIN28A = biological target: T1, LIN28A (human?, UniProt Q9H9Z2 1-209)
# T1 sequence: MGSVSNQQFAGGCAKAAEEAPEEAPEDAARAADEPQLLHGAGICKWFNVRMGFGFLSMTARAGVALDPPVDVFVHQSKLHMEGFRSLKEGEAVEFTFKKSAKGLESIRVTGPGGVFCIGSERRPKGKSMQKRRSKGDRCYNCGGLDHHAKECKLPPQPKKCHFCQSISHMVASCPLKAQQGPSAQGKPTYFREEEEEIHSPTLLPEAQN
# CIRBP = biological target: T2, CIRBP (Homo sapiens, UniProt Q14011 1-172)
# T2 sequence: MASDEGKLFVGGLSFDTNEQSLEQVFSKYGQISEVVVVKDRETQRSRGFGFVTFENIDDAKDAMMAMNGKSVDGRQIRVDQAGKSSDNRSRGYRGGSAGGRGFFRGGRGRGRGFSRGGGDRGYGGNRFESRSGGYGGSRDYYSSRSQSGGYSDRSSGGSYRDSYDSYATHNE
# DHX36 = biological target: T3, DHX36 (Homo sapiens, UniProt Q9H2U1 1-1008)
# T3 sequence: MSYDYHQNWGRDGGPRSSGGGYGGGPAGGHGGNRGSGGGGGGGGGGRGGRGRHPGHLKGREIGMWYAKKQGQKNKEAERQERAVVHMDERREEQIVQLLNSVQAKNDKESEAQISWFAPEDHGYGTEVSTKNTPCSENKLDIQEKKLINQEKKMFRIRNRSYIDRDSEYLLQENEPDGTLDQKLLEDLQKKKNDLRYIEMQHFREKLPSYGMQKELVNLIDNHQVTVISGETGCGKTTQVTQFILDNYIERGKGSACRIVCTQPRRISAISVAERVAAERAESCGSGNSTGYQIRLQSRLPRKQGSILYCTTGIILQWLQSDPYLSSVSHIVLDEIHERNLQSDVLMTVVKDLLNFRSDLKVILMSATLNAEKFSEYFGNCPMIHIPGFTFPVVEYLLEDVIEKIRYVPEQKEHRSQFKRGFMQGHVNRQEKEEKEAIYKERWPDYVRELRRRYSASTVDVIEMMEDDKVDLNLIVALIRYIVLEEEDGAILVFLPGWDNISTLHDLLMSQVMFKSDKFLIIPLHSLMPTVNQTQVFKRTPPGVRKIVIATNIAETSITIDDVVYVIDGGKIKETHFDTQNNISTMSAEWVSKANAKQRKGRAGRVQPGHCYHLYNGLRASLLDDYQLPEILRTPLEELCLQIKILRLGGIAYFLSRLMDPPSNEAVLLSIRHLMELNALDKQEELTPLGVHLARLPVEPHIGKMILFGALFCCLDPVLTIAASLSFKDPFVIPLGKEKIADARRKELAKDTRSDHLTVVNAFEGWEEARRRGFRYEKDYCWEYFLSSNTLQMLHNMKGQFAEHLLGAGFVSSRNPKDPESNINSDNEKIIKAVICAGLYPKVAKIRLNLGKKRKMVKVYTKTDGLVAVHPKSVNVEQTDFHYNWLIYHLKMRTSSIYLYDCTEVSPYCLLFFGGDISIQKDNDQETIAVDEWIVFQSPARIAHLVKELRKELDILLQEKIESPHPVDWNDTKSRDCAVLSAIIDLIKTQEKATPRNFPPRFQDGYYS
Binder,binding signal (U1A) [z-score],binding signal (LIN28A) [z-score],binding signal (CIRBP) [z-score],binding signal (DHX36) [z-score]
B1,0.178,2.14,2.13,1.02
B2,0.178,1.68,0.606,-0.204
B3,0.176,0.515,1.16,-0.317
B4,1.82,2.07,3.48,5.29
B5,0.176,0.849,-0.014,0.178
B6,0.173,1.2,0.626,3.46
B7,0.171,-1.02,-0.345,-0.478
B8,0.17,0.0399,0.479,-0.756
B9,0.169,0.497,0.345,0.271
B10,0.169,-0.364,-0.846,-0.497
B11,0.168,0.00922,-0.558,0.267
B12,0.166,-0.37,0.268,-1.03
B13,0.164,-0.881,-0.0769,-0.193
B14,0.163,-1.17,-0.742,-0.251
B15,1.82,1.56,0.581,0.767
B16,0.162,0.939,2.39,0.463
B17,0.161,-0.108,-0.621,1.5
B18,0.161,-0.0674,1.24,0.304
B19,0.16,-0.743,-0.41,-1.05
B20,0.158,0.573,-0.38,0.267
B21,0.158,0.0521,0.747,3.72
B22,0.157,0.256,0.258,-0.0125
